Data as given in PubChem BioAssay AID431 (Sanford-Burnham Center for Chemical Genomics, 2006).
The list shows a part of the results, in another mix than the full data. Entries with a potency or affinity are not part of this list. The source made the active and inactive calls.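 How the source made its calls: active means compounds whose percent cytotoxicity in the single-dose primary screen, scaled between solvent and toxic-drug controls, exceeds 50; inactive means the rest.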

Test: cytotoxicity in KRAS-transformed pancreatic duct cells, primary screen, cell-based, fluorescence, HTS (AID 431);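 further: 0% = DMSO solvent wells and 100% = doxorubicin-treated wells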
Conditions: HPDE-C7K KRASV12 cells, Alamar Blue viability, 48 h; at 10 µM; stronger effect = higher value

Structure (SMILES) | cytotoxicity
Cc1nc2ccc3ccccc3c2s1.O=[N+]([O-])c1cc([N+](=O)[O-])c(O)c([N+](=O)[O-])c1 | inactive: 0%
Cc1ccc(C)c(NP(C)(=O)Oc2ccccc2)c1 (configuration not stated) | inactive: -9.5%
Cc1ccc(NP(C)(=O)Oc2ccccc2)c(C)c1 (configuration not stated) | inactive: -12.7%
CP(=S)(Nn1cnnc1)Oc1ccccc1 (configuration not stated) | inactive: 4.7%
CP(=O)(NC(=O)Nc1ccccc1)Oc1ccccc1 (configuration not stated) | inactive: -19.5%
CCOP(C)(=S)SCC(=O)NC(C)C(=O)O (configuration not stated) | inactive: -7.9%
COc1ccccc1OP(C)(=O)Nc1c(C)n(C)n(-c2ccccc2)c1=O (configuration not stated) | inactive: -21.4%
CP(=O)(Oc1ccccc1)N1CCOC1=O (configuration not stated) | inactive: 11.6%
CCN(CC)CC(O)COC(=O)C(O)(c1ccccc1)C1CCCCC1 (configuration not stated) | inactive: 8.8%
COc1ccccc1OP(C)(=O)Nc1ccc(C)c(C)c1 (configuration not stated) | inactive: 2.4%
Cc1nc2ccc3ccccc3c2o1.O=[N+]([O-])c1cc([N+](=O)[O-])c(O)c([N+](=O)[O-])c1 | inactive: 1.8%
CP(=O)(Nc1ccccn1)Oc1ccccc1 (configuration not stated) | inactive: -3.1%
CP(=O)(Nc1ccccc1F)Oc1ccccc1 (configuration not stated) | inactive: -2.6%
CN(C)CCOC(=O)C(O)(c1ccccc1)C1CCCCC1 (configuration not stated) | inactive: -0.3%
CCOP(C)(=S)SCC(=O)NC(C)(CC)C(=O)O (configuration not stated) | inactive: -20.8%
Cc1ccccc1NP(C)(=O)Nc1ccccc1C | inactive: -8.4%
CP(=O)(Nc1ccc2c(c1)OCCO2)Oc1ccccc1 (configuration not stated) | inactive: 14.2%
